{
  "sequences": {"note": "The chains behind the UniProt entries cited, without tags or fusion partners.", "UniProt P03372, whole entry Y537S": "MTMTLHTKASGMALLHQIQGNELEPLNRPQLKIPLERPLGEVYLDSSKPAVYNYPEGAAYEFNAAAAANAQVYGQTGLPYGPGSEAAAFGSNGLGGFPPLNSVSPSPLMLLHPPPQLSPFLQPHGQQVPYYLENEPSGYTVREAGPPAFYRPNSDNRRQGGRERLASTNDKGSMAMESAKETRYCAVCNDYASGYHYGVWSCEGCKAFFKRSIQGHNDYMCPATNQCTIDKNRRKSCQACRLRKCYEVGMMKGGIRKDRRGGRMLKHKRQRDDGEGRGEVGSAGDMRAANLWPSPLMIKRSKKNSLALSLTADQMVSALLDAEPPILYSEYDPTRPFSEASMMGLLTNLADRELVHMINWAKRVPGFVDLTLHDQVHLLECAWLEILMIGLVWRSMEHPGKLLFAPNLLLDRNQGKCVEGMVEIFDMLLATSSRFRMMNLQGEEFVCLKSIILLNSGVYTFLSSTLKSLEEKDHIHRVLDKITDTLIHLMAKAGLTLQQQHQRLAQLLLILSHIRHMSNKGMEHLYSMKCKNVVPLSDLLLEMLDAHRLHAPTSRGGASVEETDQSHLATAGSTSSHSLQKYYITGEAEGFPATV", "UniProt P03372, whole entry D538G": "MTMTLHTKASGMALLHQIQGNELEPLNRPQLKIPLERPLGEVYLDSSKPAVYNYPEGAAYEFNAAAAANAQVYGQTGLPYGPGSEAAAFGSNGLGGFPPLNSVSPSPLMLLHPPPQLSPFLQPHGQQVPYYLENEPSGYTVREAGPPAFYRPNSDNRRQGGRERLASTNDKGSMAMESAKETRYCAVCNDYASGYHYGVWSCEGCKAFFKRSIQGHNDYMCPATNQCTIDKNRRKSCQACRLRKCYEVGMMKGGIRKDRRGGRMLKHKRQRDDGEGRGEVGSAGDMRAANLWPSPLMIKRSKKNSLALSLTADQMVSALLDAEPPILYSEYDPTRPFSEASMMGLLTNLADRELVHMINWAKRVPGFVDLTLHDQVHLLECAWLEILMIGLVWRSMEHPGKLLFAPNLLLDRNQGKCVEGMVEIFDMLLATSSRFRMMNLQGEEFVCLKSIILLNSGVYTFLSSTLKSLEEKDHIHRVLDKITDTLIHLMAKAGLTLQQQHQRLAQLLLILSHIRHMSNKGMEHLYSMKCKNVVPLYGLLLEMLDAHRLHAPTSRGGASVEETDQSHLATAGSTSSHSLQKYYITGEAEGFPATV", "UniProt P03372, whole entry": "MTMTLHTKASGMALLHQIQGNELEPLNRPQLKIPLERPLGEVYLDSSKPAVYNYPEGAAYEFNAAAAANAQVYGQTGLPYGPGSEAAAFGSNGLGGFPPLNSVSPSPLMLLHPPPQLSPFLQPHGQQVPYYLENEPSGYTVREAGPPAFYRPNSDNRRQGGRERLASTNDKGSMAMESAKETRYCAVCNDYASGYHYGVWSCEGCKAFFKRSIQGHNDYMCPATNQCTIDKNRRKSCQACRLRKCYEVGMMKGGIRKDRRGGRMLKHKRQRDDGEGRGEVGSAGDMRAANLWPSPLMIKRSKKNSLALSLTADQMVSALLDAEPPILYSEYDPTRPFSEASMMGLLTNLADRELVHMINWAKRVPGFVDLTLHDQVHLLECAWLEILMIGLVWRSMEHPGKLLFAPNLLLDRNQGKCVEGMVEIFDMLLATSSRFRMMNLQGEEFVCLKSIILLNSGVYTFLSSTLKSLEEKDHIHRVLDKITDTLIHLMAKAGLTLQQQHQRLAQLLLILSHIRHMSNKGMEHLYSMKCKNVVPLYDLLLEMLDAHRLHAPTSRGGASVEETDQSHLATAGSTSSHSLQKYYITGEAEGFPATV"},
  "source": "patent US11364222B2",
  "about": "“Combination therapy for treatment of cancer” (G1 Therapeutics, Inc., priority 2017, dated 2022)",
  "assay_type_in_all_cases": "cell-based",
  "key": {"mutant ER (Y537S)": {"target": "T1, mutant ER (Y537S) (Homo sapiens, UniProt P03372, Y537S)", "T1 construct": "expressed in transfected cells; host or cells: SKBR3", "experiment": "SKBR3 (Y537S ER) ER-driven transcription, light units"}, "mutant ER (D538G)": {"target": "T2, mutant ER (D538G) (Homo sapiens, UniProt P03372, D538G)", "T2 construct": "expressed in transfected cells; host or cells: SKBR3", "experiment": "SKBR3 (D538G ER) ER-driven transcription, light units"}, "wild-type ER (wtER)": {"target": "T3, wild-type ER (wtER) (Homo sapiens, UniProt P03372)", "T3 construct": "expressed in transfected cells; host or cells: SKBR3", "experiment": "SKBR3 (wild type ER) ER-driven transcription, light units", "settings": "IC50, SKBR3 (WT ER), SKBR3 cells with wild type estrogen receptor"}},
  "data": [
    {"smiles": "C[C@@H]1Cc2c([nH]c3ccccc23)[C@@H](c2c(F)cc(/C=C/C(=O)O)cc2F)N1CC(C)(C)F", "note": "[AZD9496]", "values": [
      {"measurement": "IC50", "setting": "mutant ER (Y537S); IC50, SKBR3 (Y537S ER), SKBR3 cells with Y537S mutated estrogen receptor, light units", "result": 2.57, "unit": "nM"},
      {"measurement": "IC50", "setting": "mutant ER (Y537S); IC50 ER^Y537S (nM), Table 10, values collected in Example 12", "result": 2.6, "unit": "nM"},
      {"measurement": "IC50", "setting": "mutant ER (D538G)", "result": 1.2, "unit": "nM"},
      {"measurement": "IC50", "setting": "wild-type ER (wtER)", "result": 0.45, "unit": "nM"}
    ]}
  ]
}
